Source: patent US11559058B2, “Synergistic antimicrobial effects among rosemary extract, cultured dextrose and buffered vinegar” (KALAMAZOO HOLDINGS, INC., priority 2019, dated 2023)

Tested on: Salmonella enterica serovar typhimurium (ATCC® 14028™)
Test: Growth inhibition in brain heart infusion broth (OD600, delta growth, percentage inhibition)
Assay type: cell-based
Details: BHI pH 5.2, 37° C., 24 hours, chloramphenicol 0.02%
Method: Salmonella enterica serovar typhimurium (ATCC® 14028™) was obtained from ATCC (Manassas, Va.). Alternatively, lactic acid bacteria including Propionibacterium spp., Lactococcus lactis, Lactobacillus reuteri, may be used in the assay as representative microbial sources. Brain heart infusion broth (BD, Sparks, Md.) was used as a growth medium and the pH was adjusted to pH 5.2 with HCl. Chloramphenicol (Sigma, St. Louis, Mo.) was used as a positive control. All cultures were incubated at 37° C. with agitation at 220 rpm for 24 hours. Growth was determined by measuring the optical density at 600 nm (OD600) with BIOTEK PowerWave HT 340 spectrophotometer (BIOTEK, Winooski, Vt.). Delta growth was calculated by subtracting the growth measured at 0 hours from the growth measured at 24 hours. Percentage inhibition was calculated by the following equation: [formula] All experiments were performed in triplicate. Rosemary essential oil (RO), buffered vinegar (BV), and cultured dextrose (CD) was tested for synergistic antimicrobial activity against S. typhimurium. Prior to synergy testing, minimum inhibitory concentration (MIC) of each compound was determined. The concentrations showing sub-inhibitory or no inhibitory effect were used for synergy test. Two-way synergy was determined by the following equations: Percentage inhibition of [a% rosemary essential oil and b% cultured dextrose mix]>Percentage inhibition of [a% rosemary essential oil]+Percentage inhibition of [b% cultured dextrose] Percentage inhibition of [a% rosemary essential oil and c% buffered vinegar mix]>Percentage inhibition of [a% rosemary essential oil]+Percentage inhibition of [c% buffered vinegar] Percentage inhibition of [b% cultured dextrose and c% buffered vinegar mix]>Percentage inhibition of [b% cultured dextrose]+Percentage inhibition of [c% buffered vinegar] Test for Three-Way Synergy The concentration of rosemary essential oil, buffered vinegar, and cultured dextrose used for the three-way synergy test was designed to have slight synergistic antimicrobial effects when two agents were combined, but not showing 100% inhibition against S. typhimurium. Three-way synergy was determined when all of the following conditions were met: Percentage inhibition of [a% rosemary essential oil and b% cultured dextrose and c% buffered vinegar mix]>Percentage inhibition of [a% rosemary essential oil]+Percentage inhibition of [b% cultured dextrose]+Percentage inhibition of [c% buffered vinegar] Percentage inhibition of [a% rosemary essential oil and b% cultured dextrose and c% buffered vinegar mix]>Percentage inhibition of [a% rosemary essential oil and b% cultured dextrose mix]+Percentage inhibition of [c% buffered vinegar] Percentage inhibition of [a% rosemary essential oil and b% cultured dextrose and c% buffered vinegar mix]>Percentage inhibition of [a% rosemary essential oil and c% buffered vinegar mix]+Percentage inhibition of [b% cultured dextrose] Percentage inhibition of [a% rosemary essential oil and b% cultured dextrose and c% buffered vinegar mix]>Percentage inhibition of [b% cultured dextrose and c% buffered vinegar mix]+Percentage inhibition of [a% rosemary essential oil] […] Growth was determined by measuring the optical density at 600 nm. Delta growth was calculated by subtracting the growth measured at 0 hours from the growth measured at 24 hours. […]

O=C(N[C@H](CO)[C@H](O)c1ccc([N+](=O)[O-])cc1)C(Cl)Cl [Chloramphenicol]
Inhibition (%) (Example 1, rosemary essential oil 0.50%, cultured dextrose 0.16%, combination 0.5% + 0.16%): 97% | Inhibition (%) (Example 2, rosemary essential oil 0.50%, buffered vinegar 0.0625%, combination 0.5% + 0.0625%): 99% | Inhibition (%) (Example 3, cultured dextrose 0.16%, buffered vinegar 0.0625%, combination 0.16% + 0.0625%): 98% | Inhibition (%) (Example 4, rosemary essential oil 0.50%, cultured dextrose 0.112%, buffered vinegar 0.044%, same concentrations in combinations): 99% | Inhibition (%) (Example 5, cultured dextrose 0.2%, buffered vinegar 0.065%, clove oil 0.025%, thyme oil 0.03%, pimento leaf oil 0.05%, same concentrations in combinations): 100%
